Experimental data published in ChEMBL document CHEMBL4422615, “Novel non-xanthine antagonist of the A2B adenosine receptor: From HTS hit to lead structure” (Eur J Med Chem, 2019).

Legend:
Type in all cases: cell-based
[1] = species: Homo sapiens; assay: Selectivity index, ratio of IC50 for human A1 adenosine receptor expressed in CHO cell membranes to IC50 for human A2B adenosine receptor expressed in HEK293 cell membranes
[2] = species: Homo sapiens; assay: Selectivity index, ratio of IC50 for human A2A adenosine receptor expressed in HEK293 cell membranes to IC50 for human A2B adenosine receptor expressed in HEK293 cell membranes
[3] = species: Homo sapiens; assay: Selectivity index, ratio of IC50 for human A3 adenosine receptor expressed in HEK293 cell membranes to IC50 for human A2B adenosine receptor expressed in HEK293 cell membranes

Compound `CCn1c(=O)c2c(C)c(C(=O)N3CCC(O)CC3)sc2n(CCC(F)(F)F)c1=O` has a Ratio IC50 [1] of 20 to 24, a Ratio IC50 [2] of 13 to 16 and a Ratio IC50 [3] of 10 to 100.
